Test results published in BindingDB's records for doi:10.1021/jm9601967 (F. Hoffmann-La Roche, 1996).

Assay: Compound was tested for inhibition of Penicillin-binding protein 2 from Streptococcus pneumoniae

## C[C@]1(/C=C/C#N)[C@H](C(=O)O)N2C(=O)C[C@H]2S1(=O)=O [Sodium; (2S,3R,5R)-3-((Z)-2-cyano-vinyl)-3-methyl-4,4,7-trioxo-4lambda*6*-thia-1-aza-bicyclo[3.2.0]heptane-2-carboxylate]
  IC50: 5 µM
